Source: patent US9193689B2, “3-aryl-5-substituted-isoquinolin-1-one compounds and their therapeutic use” (INSTITUTE OF CANCER RESEARCH: ROYAL CANCER HOSPITAL (THE), priority 2012, dated 2015)

Tested on: DLD1 cells
Experiment: Long-Term Clonogenic Assay (DLD1 cells)
Assay type: cell-based
Protocol: Clonogenic Inhibition in DLD1 or HT55 Cells
In order to determine the efficacy of chronic dosing of putative TNKS inhibitors, long term clonogenic or ‘colony formation’ assays were carried out. This included the sparse seeding of cells in a 6-well dish followed by continuous dosing of cells over 12-14 days (depending on relative cell growth). Appropriate cell lines (DLD1 or HT55) were seeded at 500 cells/well in a 6-well dish in DMEM supplemented with FBS. […] Dosages were carried out in triplicate. Cell media containing compound or DMSO only was replenished every 48 hours. Termination of the assay included the fixation of cells with trichlororacetic acid (1 mL, 10% (v/v), Sigma Aldrich, cat. no. T6399) and incubation for 16 hours at 4° C. Fixed cells were then washed with water, allowed to dry and stained with sulforhodamine B solution (sulforhodamine B 0.05% (w/v), Sigma Aldrich cat. no. S1402, acetic acid 1% (v/v), Fisher Scientific, cat. no. A/0400/PB17)) for 12 hours at room temperature. The stain was then removed and the cells washed copiously with aqueous acetic acid (1% v/v) and allowed to dry.
The data was normalised to the DMSO control and was expressed as surviving fraction as a function of inhibitor dose.

Cc1cccc2c(=O)[nH]c(-c3ccc(CN(C)C)cc3)cc12 [IQ-034]
Clonogenic SF50 (DLD1): < 2 µM
